## Ab-14 light chain CDR variants: yeast mating affinities

Data: MIT Lincoln Laboratory AlphaSeq set, Engelhart et al. 2022, doi:10.1038/s41597-022-01779-4, as distributed in FLAb.

Target: peptide PDVDLGDISGINAS, taken from heptad repeat 2 (HR2) of SARS-CoV-2 spike.

Each scFv is VH, the linker GGGGSGGGGSGGGGS, VL, as in the parent Ab-14, and differs from it in the CDRs of the light chain only.
VH: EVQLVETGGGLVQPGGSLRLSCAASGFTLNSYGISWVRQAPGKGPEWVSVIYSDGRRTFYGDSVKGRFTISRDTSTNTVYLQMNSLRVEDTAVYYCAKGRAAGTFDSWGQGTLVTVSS
VL: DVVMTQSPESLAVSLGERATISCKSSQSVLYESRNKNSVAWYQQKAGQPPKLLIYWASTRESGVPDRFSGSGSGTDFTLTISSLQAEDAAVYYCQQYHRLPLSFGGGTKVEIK

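The starting antibody came from a phage panning campaign against this peptide. Library AAYL50 holds single substitutions and randomly drawn double and triple substitutions in the CDRs. Affinity was read by AlphaSeq, a pooled yeast mating assay with surface-displayed partners. Pairs that bind mate more often; barcode pairs of the diploids are counted by sequencing. Scores were corrected for input abundance and mapped to Kd with protein pairs of known affinity run in the same pool. Mating was done three times.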

Changes read parent residue, position, new residue, counted from the first residue of the VL shown.
The read-out is the apparent dissociation constant on a log10 scale (nM): the lower, the stronger.
Averages over replicates are reported, and they cover detected replicates only.
An entry "nd" has no value in the source: the pair was not observed among the diploids in that replicate. This suggests poor binding but is not conclusive.
Parent in this assay: reference entry 0.65, copy in this library 1.68.

changes,log10 Kd (nM) by replicate,mean log10 Kd (nM),signal with controls
S33H/R99A,1.93 / 1.92 / 2.02,1.96,4/9 (4.04)
N37T/S103T,2.34 / 2.02 / 1.65,2.00,0/9
T59L,0.60 / 0.80 / 0.49,0.63,0/9
E32D/S62F/Q95W,3.14 / nd / 3.03,3.09,2/9 (3.67)
S33P/K36I/S38C,nd / 2.62 / nd,2.62,1/9 (3.20)
A40G/E61W/P101N,nd / nd / nd,nd,0/9
R34N/L102G,0.17 / 0.53 / 0.40,0.37,0/9
Q27V/S33M/H98E,1.23 / 1.49 / 1.52,1.41,1/9 (4.00)
L30A/E32G/S33G,1.44 / 1.36 / 1.56,1.46,3/9 (3.97)
Q95H/Y97K/R99F,nd / nd / nd,nd,1/9 (2.79)
S62Q/Q95Y,nd / nd / nd,nd,0/9
S25E/V39S/A57D,4.43 / 3.18 / nd,3.81,4/9 (4.57)
S25Y/W56M/A57I,1.53 / 1.73 / 1.66,1.64,6/9 (4.07)
L30Y/E32V/L102T,nd / nd / nd,nd,2/9 (3.84)
K24N/V39W/P101V,nd / nd / 6.21,6.21,0/9
E61P/Q96W,2.43 / 2.40 / 2.40,2.41,3/9 (4.65)
V39F/Y97D/L102S,6.26 / 4.27 / 6.09,5.54,2/9 (3.50)
E32N/V39C,5.36 / nd / nd,5.36,4/9 (4.24)
R34P/Y97H/S103V,2.72 / 2.86 / 4.56,3.38,1/9 (3.71)
S26A/W56H/L100D,nd / nd / nd,nd,0/9
S38R/H98D,nd / nd / nd,nd,0/9
K24P/V39G/S62R,3.35 / 3.73 / 2.89,3.33,2/9 (4.27)
S26R/Y31G,2.46 / 2.31 / 2.43,2.40,0/9
Y31A/W56S/H98V,-0.27 / 0.04 / -0.17,-0.13,4/9 (4.81)
S25W/S58D/S103L,nd / nd / nd,nd,0/9
S28R/S62D,1.63 / 1.66 / 1.75,1.68,3/9 (3.78)
S28Y/H98M/L100Y,3.02 / 2.74 / 3.23,3.00,1/9 (4.33)
K24L/R60A/S62R,3.72 / nd / 3.47,3.59,5/9 (4.47)
Y31N/T59L/E61A,1.44 / 1.33 / 1.40,1.39,7/9 (4.09)
W56Q/Y97C/H98W,0.53 / 0.79 / 0.64,0.65,6/9 (5.30)
Y31D/A40H/L102C,nd / nd / nd,nd,3/9 (3.58)
R34V/E61G/Q96T,1.06 / 1.13 / 1.19,1.12,2/9 (5.14)
S28R/Y31Q/N37C,1.66 / 1.80 / 2.01,1.82,2/9 (3.35)
H98W/R99I/P101K,nd / 5.26 / nd,5.26,1/9 (4.04)
S33A/H98I/S103N,nd / nd / 2.76,2.76,0/9
A57L/H98A/L102S,3.23 / 2.95 / 2.84,3.01,1/9 (3.80)
S28A/P101G/L102Y,2.06 / 1.48 / 2.49,2.01,0/9
S25W/V39W/Q96F,nd / 4.02 / nd,4.02,2/9 (3.89)
K24D/Q27T/S38F,nd / nd / nd,nd,2/9 (2.95)
N35L/T59I/Q96V,2.66 / 2.49 / 3.37,2.84,3/9 (4.53)
K24W/Y31M/R99S,2.42 / 2.55 / 2.57,2.51,3/9 (4.71)
K36S/A57K/R60M,nd / nd / nd,nd,0/9
Q27S/E32D/S58Q,0.48 / 0.85 / 0.81,0.71,7/9 (5.01)

7 of these entries, quoted again:

changes	log10 Kd (nM) by replicate	mean log10 Kd (nM)	signal with controls
S26R/Y31G	2.46 / 2.31 / 2.43	2.40	0/9
Y31N/T59L/E61A	1.44 / 1.33 / 1.40	1.39	7/9 (4.09)
W56Q/Y97C/H98W	0.53 / 0.79 / 0.64	0.65	6/9 (5.30)
S62Q/Q95Y	nd / nd / nd	nd	0/9
Y31D/A40H/L102C	nd / nd / nd	nd	3/9 (3.58)
K24W/Y31M/R99S	2.42 / 2.55 / 2.57	2.51	3/9 (4.71)
A40G/E61W/P101N	nd / nd / nd	nd	0/9

Empty control strains, which show no peptide, gave a signal in 18% of pairings with library AAYL50; the median was 4.19 and 95% of these signals were weaker than 2.99. No background was subtracted. The control count says in how many pairings with the empty strains this scFv gave a signal, with their mean in brackets.